Experimental findings from US20100330200A1, “COMBINATION OF A RETINOID AND A PLATINUM ANTICANCER AGENT” (SIGMA-TAU INDUSTRIE FARMACEUTICHE RIUNITE S.P.A., priority 2006, published 2010) are described below.

The subject of this data set is IGROV-1 ovarian carcinoma. The experiment in a line: s.c. growing IGROV-1 tumor, ST1926 doses and schedules.

“And” between values parts separate entries of the source, which are not always exact repeats. Identical values can stand only once.

Turning to `O=C(O)/C=C/c1ccc(-c2ccc(O)c(C34CC5CC(CC(C5)C3)C4)c2)cc1` [ST1926, E-4-(3-(1-adamantyl)-4-hydroxyphenyl)cinnamic acid], the “Tox (No. of dead mice/total no. of mice)” value by setting is: (15 mg/kg oral qdx2/wx2w) 0/4; (15 mg/kg oral qdx5/wx3w) 0/4; (20 mg/kg oral qdx5/wx2w, 20 mg/kg) “lethal toxicity and 2/4”; (5 × 2 mg/kg oral qdx5/wx4w) 0/4.
